{
  "source": "patent US12202827B2",
  "about": "“Aldosterone synthase inhibitor” (DAMIAN PHARMA AG, priority 2016, dated 2025)",
  "note": "Like-named read-outs stand apart in the source and are kept apart here.",
  "data": [
    {"smiles": "N#Cc1ccc([C@H]2CCCc3cncn32)cc1.O=P(O)(O)O", "values": [
      {"measurement": "Assay by HPLC, anhydrous, solvent free", "setting": "25° C./60% RH, 1 month", "result": 99.5},
      {"measurement": "Assay by HPLC, anhydrous, solvent free", "setting": "25° C./60% RH, 3 months", "result": 99.8},
      {"measurement": "Assay by HPLC, anhydrous, solvent free", "setting": "25° C./60% RH, 6 months", "result": 99.6},
      {"measurement": "Assay by HPLC, anhydrous, solvent free", "setting": "25° C./60% RH, 9 months", "result": 99.7},
      {"measurement": "Assay by HPLC, anhydrous, solvent free", "setting": "25° C./60% RH, 12 months", "result": 100.3},
      {"measurement": "Assay by HPLC, anhydrous, solvent free", "setting": "25° C./60% RH, Initial", "result": 99.9},
      {"measurement": "Assay by HPLC, anhydrous, solvent free", "setting": "30° C./65%RH, 1 month", "result": 99.6},
      {"measurement": "Assay by HPLC, anhydrous, solvent free", "setting": "30° C./65%RH, 3 months", "result": 100.1},
      {"measurement": "Assay by HPLC, anhydrous, solvent free", "setting": "30° C./65%RH, 6 months", "result": 99.6},
      {"measurement": "Assay by HPLC, anhydrous, solvent free", "setting": "30° C./65%RH, 9 months", "result": 99.6},
      {"measurement": "Assay by HPLC, anhydrous, solvent free", "setting": "30° C./65%RH, 12 months", "result": 99.5},
      {"measurement": "Assay by HPLC, anhydrous, solvent free", "setting": "30° C./65%RH, Initial", "result": 99.9},
      {"measurement": "Assay by HPLC, anhydrous, solvent free", "setting": "40° C./75% RH, 1 month", "result": 99.7},
      {"measurement": "Assay by HPLC, anhydrous, solvent free", "setting": "40° C./75% RH, 3 months", "result": 100.2},
      {"measurement": "Assay by HPLC, anhydrous, solvent free", "setting": "40° C./75% RH, Initial", "result": 99.9}
    ]}
  ]
}
